Target: isolated activated GpIIb/IIIa receptor (Homo sapiens, UniProt P05106+P08514)
Assay: GpIIb/IIIa-Fibrinogen-ELISA (inhibition of fibrinogen binding to coated receptor)
Settings: inhibition of fibrinogen-GpIIb/IIIa interaction, O.D. at 405 nm, tested form: trifluoroacetate
Method: Microtitre plates are coated overnight with 2 μg/ml isolated activated GpIIb/IIIa receptor. After removing the unbound receptor by several washing steps, the surface of the plates is blocked with 1% casein and washed again. The test substance is added in the required concentrations and the plates are incubated for 10 minutes while shaking in a linear shaker. The natural ligand of the gpIIb/IIIa receptor, fibrinogen, is added. After 1 hour of incubation the unbound fibrinogen is removed by several washing steps and bound fibrinogen is detected by a peroxidase-conjugated anti-fibrinogen monoclonal antibody by measuring the O.D. at 405 nm in an ELISA-reader. Inhibition of fibrinogen-GpIIb/IIIa interaction results in a low O.D. An IC50 is calculated in relation to a concentration-effect curve.
The GpIIb/IIIa-Fibrinogen-ELISA is a modification of the assays described in the following literature:
Nachman, R. L. & Leung, L. L. K. (1982): Complex formation of platelet membrane glycoproteins IIb and IIIa with fibrinogen. J. Clin. Invest. 69:263-269. Wright, P. S. et al. (1993): An echistatin C-terminal peptide activated GpIIbIIIa binding to fibrinogen, fibronectin, vitronectin and collagen type I and type IV. Biochem. J. 293:263-276.

Amino acid sequences for entries named in this document (tags omitted). Residues count along the entry.
UniProt P05106, 27-788 limits assumed: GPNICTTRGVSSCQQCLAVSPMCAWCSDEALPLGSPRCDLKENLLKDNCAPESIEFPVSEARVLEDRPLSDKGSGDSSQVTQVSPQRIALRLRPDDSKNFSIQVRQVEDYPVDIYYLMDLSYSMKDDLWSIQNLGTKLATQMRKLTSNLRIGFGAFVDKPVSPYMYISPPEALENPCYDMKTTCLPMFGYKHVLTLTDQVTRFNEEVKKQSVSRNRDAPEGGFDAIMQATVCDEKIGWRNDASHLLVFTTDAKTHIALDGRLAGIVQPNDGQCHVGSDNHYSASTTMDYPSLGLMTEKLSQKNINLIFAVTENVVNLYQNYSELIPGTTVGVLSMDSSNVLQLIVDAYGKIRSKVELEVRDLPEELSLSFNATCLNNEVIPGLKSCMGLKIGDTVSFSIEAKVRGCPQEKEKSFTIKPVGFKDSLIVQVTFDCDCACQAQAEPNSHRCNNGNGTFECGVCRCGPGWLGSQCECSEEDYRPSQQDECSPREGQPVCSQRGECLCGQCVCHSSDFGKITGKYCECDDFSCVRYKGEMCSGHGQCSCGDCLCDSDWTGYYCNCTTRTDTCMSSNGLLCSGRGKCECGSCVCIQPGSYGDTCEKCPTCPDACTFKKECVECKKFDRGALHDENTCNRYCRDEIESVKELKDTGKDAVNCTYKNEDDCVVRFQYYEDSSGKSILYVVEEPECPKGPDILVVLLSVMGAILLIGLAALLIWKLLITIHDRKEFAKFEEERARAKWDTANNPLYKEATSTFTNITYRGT
UniProt P08514, 32-887 limits assumed: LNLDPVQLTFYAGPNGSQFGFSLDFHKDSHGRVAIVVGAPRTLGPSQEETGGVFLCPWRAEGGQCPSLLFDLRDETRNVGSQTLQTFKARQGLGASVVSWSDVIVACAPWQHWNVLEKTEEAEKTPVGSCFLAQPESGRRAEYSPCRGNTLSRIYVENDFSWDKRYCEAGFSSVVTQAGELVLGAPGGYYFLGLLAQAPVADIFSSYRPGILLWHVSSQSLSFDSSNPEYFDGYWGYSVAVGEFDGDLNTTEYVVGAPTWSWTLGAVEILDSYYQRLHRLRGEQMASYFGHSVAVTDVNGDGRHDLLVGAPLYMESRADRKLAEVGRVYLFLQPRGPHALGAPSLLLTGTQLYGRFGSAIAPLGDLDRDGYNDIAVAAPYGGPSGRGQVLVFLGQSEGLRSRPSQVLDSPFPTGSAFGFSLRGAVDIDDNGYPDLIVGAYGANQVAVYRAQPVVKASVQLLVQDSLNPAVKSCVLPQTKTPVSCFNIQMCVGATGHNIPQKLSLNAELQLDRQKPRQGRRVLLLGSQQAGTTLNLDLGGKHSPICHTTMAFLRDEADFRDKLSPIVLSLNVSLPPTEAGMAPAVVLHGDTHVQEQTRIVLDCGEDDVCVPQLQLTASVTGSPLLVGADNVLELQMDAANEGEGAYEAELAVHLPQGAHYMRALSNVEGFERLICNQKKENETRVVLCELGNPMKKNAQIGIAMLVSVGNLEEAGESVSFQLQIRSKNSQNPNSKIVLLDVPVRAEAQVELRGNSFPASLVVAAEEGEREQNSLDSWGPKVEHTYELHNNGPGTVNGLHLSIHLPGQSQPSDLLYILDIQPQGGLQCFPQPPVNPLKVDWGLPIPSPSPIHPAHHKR
UniProt P08514, 891-1039 partner limits assumed: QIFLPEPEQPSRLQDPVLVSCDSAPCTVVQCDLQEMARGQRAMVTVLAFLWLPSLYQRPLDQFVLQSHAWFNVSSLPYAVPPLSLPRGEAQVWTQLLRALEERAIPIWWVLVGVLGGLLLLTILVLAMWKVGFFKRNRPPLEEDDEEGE

Row | Structure (SMILES) | IC50 [nM]
1 | O=C(O)CC1(O)CCC(CC(=O)N2CCN(c3ccncc3)CC2)CC1 (stereo not drawn) | 300
2 | O=C(O)CC1(O)CCC(CCN2CCN(c3ccncc3)CC2)CC1 (single isomer, unassigned) [3 cis-isomer] | 300
3 | O=C(O)CC1(O)CCC(CCN2CCN(c3ccncc3)CC2)CC1 (single isomer, unassigned) [3 trans-isomer] | 6

Reference: patent US20010009912A1, “NEW DERIVATIVES OF PYRIDIL PIPERAZINE OR PYRIDAZINYL PIPERAZYL, PROCESS FOR PRODUCTION THEREOF AND MEDICAMENTS CONTAINING THESE COMPOUNDS” (priority 1995, published 2001)
